The nature of this data set: Thermal stability of RDV under annealing at 80° C. (RDV assay by HPLC). Format: physicochemical. The settings on record: annealing 80° C., 30 min, triplicate.

For `CCC(CC)COC(=O)C(C)NP(=O)(OCC1OC(C#N)(c2ccc3c(N)ncnn23)C(O)C1O)Oc1ccccc1.O=C(O)c1ccccc1O` (centres unmarked) [RDV−SA, cocrystal of remdesivir and salicylic acid], the “% Assay of RDV after exposed to thermal annealing” value reads like this: (listed as RDV-SA_LAG) 98.91 ± 1.25%; (listed as RDV−SA cocrystal) 98.91±1.25%.

These data come from patent US20240307427A1, “REMDESIVIR COCRYSTAL, COMPOSITIONS AND METHODS THEREOF” (priority 2023, published 2024).
